How the values were obtained:
[1] = system: trypsin, chymotrypsin and elastase; assay: Metabolic stability in pancreatic enzyme mix (ESMS, SIM signal); conditions: chymotrypsin and elastase in 100 mM ammoniumbicarbonate pH 8.0, 37° C., 24 h, decrease in SIM signal
[2] = system: carboxypeptidase Y and B; assay: Metabolic stability in carboxypeptidase mix (ESMS, SIM signal); conditions: carboxypeptidase Y and B in 50 mM ammoniumacetate pH 4.5, 37° C., 24 h, decrease in SIM signal

## CSCC[C@H](NC(=O)[C@H](CC(C)C)NC(=O)[C@H](Cc1c[nH]c2ccccc12)NC(=O)[C@H](CCC(N)=O)NC(=O)[C@@H](NC(=O)[C@H](Cc1ccccc1)NC(=O)[C@H](CC(=O)O)NC(=O)[C@H](CCC(N)=O)NC(=O)[C@H](C)NC(=O)[C@H](CCCN=C(N)N)NC(=O)[C@H](CCCN=C(N)N)NC(=O)[C@H](CO)NC(=O)[C@H](CC(=O)O)NC(=O)[C@H](CC(C)C)NC(=O)[C@H](Cc1ccc(O)cc1)NC(=O)[C@H](CCCCN)NC(=O)[C@H](CO)NC(=O)[C@H](Cc1ccc(O)cc1)NC(=O)[C@H](CC(=O)O)NC(=O)[C@H](CO)NC(=O)[C@@H](NC(=O)[C@H](Cc1ccccc1)NC(=O)[C@@H](NC(=O)CNC(=O)[C@H](CCC(N)=O)NC(=O)[C@H](CO)NC(=O)[C@@H](N)Cc1c[nH]cn1)[C@@H](C)O)[C@@H](C)O)C(C)C)C(=O)N[C@@H](CC(N)=O)C(=O)N[C@H](C(=O)O)[C@@H](C)O [Glucagon]
[1]
  Pan. enzyme mix (stability): − (Unstable (more than 20% decrease in SIM signal after 24 h in degradation solution))
[2]
  Carboxy-peptidase mix (stability): − (Unstable (more than 20% decrease in SIM signal after 24 h in degradation solution))

From US6566337B1, “Compounds with growth hormone releasing properties” (Novo Nordisk A/S, priority 1998, dated 2003)
